Results: patent publication US20230414776A1, “Small Molecule-Nanobody Conjugate Inducers of Proximity (SNACIP) and Preparation Methods and Use thereof” (Harbin Institute of Technology, priority 2022, published 2023)

Biological target: EGFP-mito
Experiment: cell-based or functional assay

Substance cR10*-SS-GBP-TMP (VHH) has a Pearson correlation coefficient of colocalization between mCherry and EGFP channels of 1 PCC and a t1/2 of induced intracellular dimerization (normalized PCC against time) of 7.26 min.
